Test results taken from US7084106.
Values joined by “and” are separate entries in the source; they are usually repeats but may differ in a detail not shown here. Identical values can stand only once.

Sequences of proteins named here, by UniProt entry; tags and fusion partners are left off. Residues count along the entry.
UniProt P02745, 23-245 limits assumed, chain 1 of 3: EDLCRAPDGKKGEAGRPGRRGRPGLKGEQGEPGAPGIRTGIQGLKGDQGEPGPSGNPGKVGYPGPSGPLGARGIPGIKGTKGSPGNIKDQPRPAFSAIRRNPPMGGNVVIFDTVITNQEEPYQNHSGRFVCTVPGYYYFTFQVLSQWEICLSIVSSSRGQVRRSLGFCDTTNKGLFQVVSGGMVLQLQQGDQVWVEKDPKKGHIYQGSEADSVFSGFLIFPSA

What was measured:
[1] = biological target: complement component C3 (in human serum) (human) (UniProt P01024); experiment: cell-based or functional assay
[2] = biological target: complement component C1q (in human serum) (human) (UniProt P02745); experiment: cell-based or functional assay

complement activation measured as SC5b-9 formation (enzyme immunoassay), normal human serum with 50 uM Abeta [1]: 150 ng/mL and 200 ng/mL
complement activation measured as SC5b-9 formation (enzyme immunoassay), normal human serum with 50 uM Abeta [2]: 150 ng/mL and 200 ng/mL
Substance: Abeta1-42 (QCB, Hopkinton, Mass.), fibrillar (from UniProt P05067 672-713) (peptide)
